The target of this test is Carbonic anhydrase 2 (Homo sapiens, UniProt P00918). The test can be described thus: Inhibition of human carbonic anhydrase 2 esterase activity by non-competitive Lineweaver-Burke plot.

This note sets out measurements from ChEMBL document CHEMBL1152236 (Bioorg Med Chem, 2008).

Molecules are shown by their SMILES.

In the case of `CC(=O)Oc1ccccc1C(=O)O` [ASPIRIN], affinity was put at a Ki of 3.66 mM. In other words, the millimolar range.
